Experimental data: patent US7608642B2, “Wound and skin care compositions” (Kimberly-Clark Worldwide, Inc., priority 2002, dated 2009)

Test system: human skin fibroblast cell line (normal human dermal fibroblasts, neonatal)
Settings: 1×10^−4 M, 28 hours, serum-free DMEM, n=5

With `O=C(O)c1ccccc1O` [salicylic acid] the “Median optical density (OD) at 490 nm, cell proliferation” value was 0.4050.
